In patent publication US4009166A, “Pyrido(2,3-d) pyrimidinones” (Hisamitsu Pharmaceutical Co., Inc., priority 1974, dated 1977):

System: dd-strain male mice
Conditions: deaths 72 hours after administration

For `Cc1ccccc1-n1c(C)nc2ccccc2c1=O` [methaqualone, reference compound], the “acute toxicity i.p. (lethal dose)” value was 300 to 1000 mg/kg.
